Tested on: breast cancer cell line MX-1
Experiment: MX-1 cell line proliferation assay, Method A
Type: cell-based
Conditions: Homo sapiens, MX1; MX-1 cells, 96-well, 72 hours, Cell Titer Glo; read-out: Cellular proliferation: EC50 Method A
Method: The impact of compounds of the Examples on cancer cell proliferation was determined using the breast cancer cell line MX-1 (ATCC) in a 3-day proliferation assay and the data are reported in Table 1.
MX-1 cells were maintained in RPMI 1640 medium (Sigma) supplemented with 10% FBS at 37° C. and an atmosphere of 5% CO2. For compound testing, MX-1 cells were plated in 96-well black bottom plates at a density of 5000 cells/well in 90 μL of culture media and incubated at 370 overnight to allow cell adhesion and spreading. Compound dilution series were prepared in DMSO via a 3-fold serial dilution from 3 mM to 0.1 μM. The DMSO dilution series were then diluted 1:100 in phosphate buffered saline, and 10 μL of the resulted solution were added to the appropriate wells of the MX-1 cell plate. The final compound concentrations in the wells were 3, 1, 0.3, 0.1, 0.03, 0.01, 0.003, 0.001, 0.0003 and 0.0001 μM.
Luminescence readings from the Cell Titer Glo assay were normalized to the DMSO treated cells and analyzed using the GraphPad Prism software with sigmoidal curve fitting to obtain ECs50s. The minimum significant ratio (MSR) was determined to evaluate assay reproducibility (Eastwood et al., (2006) J Biomol Screen, 11: 253-261). The overall MSR was determined to be 2.1 and a moving MSR (last six run MSR overtime) has been <2.

EC50 [nM]	SMILES
9.4	CCS(=O)(=O)c1ccc(OCC2CC2(F)F)c(-c2cn(C)c(=O)c3[nH]c(C#CCN(C)C)cc23)c1 (centres unmarked) [Example 63, 4-{2-[(2,2-difluorocyclopropyl)methoxy]-5-(ethylsulfonyl)phenyl}-2-[3-(dimethylamino)prop-1-yn-1-yl]-6-methyl-1,6-dihydro-7H-pyrrolo[2,3-c]pyridin-7-one]
14	CC(=O)Nc1ccc(CNc2cccc(Oc3ccc(S(C)(=O)=O)cc3-c3cn(C)c(=O)c4[nH]ccc34)c2)cc1 [Example 78, N-{4-[({3-[2-(6-methyl-7-oxo-6,7-dihydro-1H-pyrrolo[2,3-c]pyridin-4-yl)-4-(methylsulfonyl)phenoxy]phenyl}amino)methyl]phenyl}acetamide]
